Data taken from patent US7795229B2, “Serum cholesterol lowering agent or preventative or therapeutic agent for atherosclerosis” (Kotobuki Pharmaceutical Co., Ltd., priority 2003, dated 2010).

System: cholesterol-fed rat
Test: Serum cholesterol lowering action in cholesterol-fed rat
Assay type: in vivo
Settings: alone, 10 mg/kg/day, once a day for 7 days, value to control
Procedure: The pharmacological experiment of serum cholesterol lowering action by the combination of compound 56 and atorvastatin or fenofibrate in cholesterol-fed rat.
Male Splague-Dawley rats weighing 300˜500 g (Nihon SLC Co. Ltd.) were fed MF-2 chow (Nihon Crea Co. Ltd.) until study onset. At the study onset, the chow was changed to MF-2 chow containing 1% cholesterol and 0.5% cholic acid. Compound 56 at 0.3 mg/kg, atorvastatin at 1 mg/kg or fenofibrate at 10 mg/kg dissolved in polyethylene glycol 400 were simultaneously administered once a day for 7 days. Twenty hours after the last administration, blood was collected from the abdominal aorta under ether anaesthesia, and serum was separated. The cholesterol value was measured using Cholesterol E Test Wako (Wako Pure Chemical Co. Ltd.). Furthermore, the effect of combined dosage of compound 56 at 0.3 mg/kg and atorvastatin at 1 mg/kg or fenofibrate at 10 mg/kg were examined similarly. The experimental No. of 1˜3, 4 and 5 indicates the case of compound 56 alone, atrovastatin alone and fenofibrate alone, respectively. The experimental 5 and 6 indicates the combined dosage examples in the present invention. Each reduction percent is shown as the value to control.
Except of the use of compound 37 instead of compound 56, quietly same experiment to pharmacological experiment 1 was carried out. Each reduction % is shown as the value to control.

## CC(C)OC(=O)C(C)(C)Oc1ccc(C(=O)c2ccc(Cl)cc2)cc1 [Fenofibrate, fenofibrate, reference compound]
  Reduction % of serum cholesterol value: 10.7%
